## Antibody variant affinities, Ab-14 heavy chain, assay 1

Reference: Engelhart et al. 2022, doi:10.1038/s41597-022-01779-4. File: FLAb, binding data.

All variants were tested on one target, the spike HR2 peptide PDVDLGDISGINAS (SARS-CoV-2).

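The starting antibody came from a phage panning campaign against this peptide. Library AAYL49 holds single substitutions and randomly drawn double and triple substitutions in the CDRs. The scFvs were displayed on barcoded MATa yeast, the peptide on MATalpha yeast. Binding brings cells together so that they mate, and sequencing counts the barcode pairs among the diploids. A regression on co-assayed BCL2-family reference pairs converts the normalised counts of each replicate to an apparent Kd. The assay was run in three technical replicates.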

The variants keep the light chain, the linker and the frameworks of Ab-14 (scFv order VH, a (GGGGS)3 linker, VL).
VH: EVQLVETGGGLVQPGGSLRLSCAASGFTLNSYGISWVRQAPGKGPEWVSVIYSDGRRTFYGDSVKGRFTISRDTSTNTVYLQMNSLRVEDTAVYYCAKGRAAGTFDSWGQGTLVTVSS
VL: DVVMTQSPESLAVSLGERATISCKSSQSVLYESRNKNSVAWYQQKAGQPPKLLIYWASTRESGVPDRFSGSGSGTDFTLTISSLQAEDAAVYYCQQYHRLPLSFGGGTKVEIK

Positions count from residue 1 of the parent VH; S53V puts V in place of S.
All variants listed here change G55 of the VH, counted from its first residue.
The Kd shown is the geometric mean over detected replicates; a lower Kd is a better binder.
"nd" marks a missing value. The strain was present, yet no cells mated with the target were sequenced in any replicate, which points to weak or no binding.
Background: pairings of library AAYL49 with three empty control strains gave a value in 15% of cases (median 11 µM, 5th percentile 680 nM). Values in that range, when seen in few replicates, are hard to tell from nonspecific mating. The control count says in how many pairings with the empty strains this scFv gave a signal.
For reference, the parent read 4.4 nM as the reference entry and 13 µM (one replicate of three) as a member of this library.

For S53V+G55D, the assay gave nd (0 of 3 replicates; controls 0 of 9).
For G26F+G55D+G99W, the assay gave nd (0 of 3 replicates; controls 1 of 9).
For S53P+G55W+S107N, the assay gave 13 µM (3 of 3 replicates; controls 7 of 9).
For S35M+G55Q+D62L, the assay gave nd (0 of 3 replicates; controls 0 of 9).
For S31F+G55K, the assay gave 110 µM (1 of 3 replicates; controls 2 of 9).
For Y52H+G55C+R57Q, the assay gave 60 µM (1 of 3 replicates; controls 0 of 9).
For G26I+I51V+G55W, the assay gave 12 µM (1 of 3 replicates; controls 3 of 9).
For S35M+G55K+D106F, the assay gave nd (0 of 3 replicates; controls 1 of 9).
For G55I+G61C+A102S, the assay gave nd (0 of 3 replicates; controls 2 of 9).
For S35D+G55P+S107R, the assay gave nd (0 of 3 replicates; controls 0 of 9).
For S31M+G55L, the assay gave 52 µM (1 of 3 replicates; controls 2 of 9).
For G26H+S35I+G55A, the assay gave nd (0 of 3 replicates; controls 2 of 9).
For S35H+G55M+G99H, the assay gave nd (0 of 3 replicates; controls 0 of 9).
For G55V+R56P+G61P, the assay gave 1.5 µM (1 of 3 replicates; controls 0 of 9).
For G55D+R100S+T104A, the assay gave 8.5 µM (2 of 3 replicates; controls 2 of 9).
For N30L+G55C+S63C, the assay gave 9.0 µM (1 of 3 replicates; controls 0 of 9).
For G55A, the assay gave 11 µM (3 of 3 replicates; controls 5 of 9).
For S31W+G55D+Y60E, the assay gave nd (0 of 3 replicates; controls 0 of 9).
For G55I+K65A+F105R, the assay gave nd (0 of 3 replicates; controls 0 of 9).
For D54R+G55W, the assay gave nd (0 of 3 replicates; controls 0 of 9).
For I51D+G55K+A101Y, the assay gave nd (0 of 3 replicates; controls 1 of 9).
For L29V+G55D+F105A, the assay gave nd (0 of 3 replicates; controls 0 of 9).
For G55S+F105S+D106K, the assay gave 70 nM (1 of 3 replicates; controls 0 of 9).
For G55T+Y60G+A101W, the assay gave 63 µM (1 of 3 replicates; controls 1 of 9).
For G55H+R57H+A102T, the assay gave nd (0 of 3 replicates; controls 1 of 9).
For V50H+G55D+V64P, the assay gave nd (0 of 3 replicates; controls 0 of 9).
For L29R+N30G+G55K, the assay gave 6.8 µM (1 of 3 replicates; controls 0 of 9).
For G26Y+G55A+A102T, the assay gave 2.6 µM (2 of 3 replicates; controls 0 of 9).
For G55H+F105I+S107I, the assay gave nd (0 of 3 replicates; controls 0 of 9).
For L29R+S35F+G55F, the assay gave nd (0 of 3 replicates; controls 0 of 9).
For D54M+G55H, the assay gave nd (0 of 3 replicates; controls 0 of 9).
For S35I+G55A+F59M, the assay gave 140 µM (1 of 3 replicates; controls 0 of 9).
For G55T+T58Y+S63R, the assay gave nd (0 of 3 replicates; controls 0 of 9).
For T28F+G55P+Y60S, the assay gave nd (0 of 3 replicates; controls 1 of 9).
For F27M+G55E, the assay gave nd (0 of 3 replicates; controls 2 of 9).
For I51S+G55D, the assay gave 21 µM (1 of 3 replicates; controls 2 of 9).
For G55L+G99A, the assay gave nd (0 of 3 replicates; controls 0 of 9).